The results in this text go back to patent US6399782B1, “Benzimidazole inhibitors of fructose 1,6-bisphosphatase” (Metabasis Therapeutics, Inc., priority 1997, dated 2002).

One assay has as its system rat hepatocytes. Description: Inhibition of gluconeogenesis in rat hepatocytes. As to conditions: Hepatocyte; glucose production from lactate/pyruvate, isolated rat hepatocytes, 1 hour. The format is cell-based. Here is the method: Hepatocytes were prepared from overnight fasted Sprague-Dawley rats (250-300 g) according to the procedure of Berry and Friend (Berry, M. N., Friend, D. S., 1969, J. Cell. Biol. 43, 506-520) as modified by Groen (Groen, A. K., Sips, H. J., Vervoorn, R. C., Tager, J. M., 1982, Eur. J. Biochem. 122, 87-93). Hepatocytes (75 mg wet weight/mL) were incubated in 1 ml Krebs-bicarbonate buffer containing 10 mM Lactate, 1 mM pyruvate, 1 mg/mL BSA, and test compound concentrations from 1 to 500 μM. Incubations were carried out in a 95% oxygen, 5% carbon dioxide atmosphere in closed, 50-mL Falcon tubes submerged in a rapidly shaking water bath (37° C.). After 1 hour, an aliquot (0.25 mL) was removed, transferred to an Eppendorf tube and centrifuged. 50 μL of supernatant was then assayed for glucose content using a Sigma Glucose Oxidase kit as per the manufacturer's instructions.

The next assay addresses T1, mouse liver FBPase (Mus musculus, UniProt Q9QXD6).
T1 construct: This partially purified fraction was used for enzyme assays; from tissue; host or cells: mouse liver, 45-75% ammonium sulfate fraction
T1 sequence (Q9QXD6 2-338 limits assumed): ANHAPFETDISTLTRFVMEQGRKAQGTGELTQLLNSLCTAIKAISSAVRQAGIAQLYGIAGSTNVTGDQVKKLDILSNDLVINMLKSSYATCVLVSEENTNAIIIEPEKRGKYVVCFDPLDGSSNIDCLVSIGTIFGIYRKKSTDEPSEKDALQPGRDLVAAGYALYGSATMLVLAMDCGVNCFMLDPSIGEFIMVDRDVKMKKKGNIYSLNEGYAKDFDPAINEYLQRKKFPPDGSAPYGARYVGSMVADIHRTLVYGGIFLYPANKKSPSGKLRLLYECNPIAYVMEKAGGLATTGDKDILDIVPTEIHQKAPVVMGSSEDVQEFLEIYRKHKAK
Description: Inhibition of mouse liver FBPase. Format: biochemical. The conditions noted are these: partially purified mouse liver fraction. On the procedure:
Enzymatic activity was measured spectrophotometrically in reactions that coupled the formation of product (fructose 6-phosphate) to the reduction of dimethylthiazoldiphenyltetrazolium bromide (MTT) via NADP and phenazine methosulfate (PMS), using phosphoglucose isomerase and glucose 6-phosphate dehydrogenase as the coupling enzymes. Reaction mixtures (200 μl) were made up in 96-well microtitre plates, and consisted of 50 mM Tris-HCl, pH 7.4, 100 mM KCl, 5 mM EGTA, 2 mM MgCl2, 0.2 mM NADP, 1 mg/ml BSA, 1 mM MTT, 0.6 mM PMS, 1 unit/mL phosphoglucose isomerase, 2 units/mL glucose 6-phosphate dehydrogenase, and 0.150 mM substrate (fructose 1,6-bisphosphate). Inhibitor concentrations were varied from 0.01 μM to 10 μM.
Mouse liver FBPase was obtained by homogenizing freshly isolated mouse liver in 100 mM Tris-HCl buffer, pH 7.4, containing 1 mM EGTA, and 10% glycerol. […] This fraction was redissolved in the homogenization buffer and desalted on a PD-10 gel filtration column (Biorad) eluted with same. This partially purified fraction was used for enzyme assays. Both rat liver and mouse liver FBPase were assayed as described for human liver FBPase.

Structures are written as SMILES.

As to `CC(C)Cn1c(-c2ccc(P(=O)(O)O)o2)nc2c(N)c(F)cc(Cl)c21` [Compound 12.54, 4-Amino-5-fluoro-7-chloro-1-isobutyl-2-(2-phosphono-5-furanyl)benzimidazole], in the assay on rat hepatocytes, the midpoint of inhibition, the IC50, lay at 3600 nM.
For the compound `CCc1cc(F)c(N)c2nc(-c3ccc(P(=O)(O)O)o3)n(CC(C)C)c12` [Compound 12.64], the half-inhibitory concentration (IC50) (as a rule, the point on the concentration scale where inhibition reaches its midpoint) at mouse liver FBPase turned out to be 1070 nM.
